Assay results: patent US11066414B2, “Cot modulators and methods of use thereof” (Gilead Sciences, Inc., priority 2015, dated 2021)

Protein sequences, listed by entry. Tags and fused reporters are not part of them. Residues count along the entry.
UniProt P41279, 30-397: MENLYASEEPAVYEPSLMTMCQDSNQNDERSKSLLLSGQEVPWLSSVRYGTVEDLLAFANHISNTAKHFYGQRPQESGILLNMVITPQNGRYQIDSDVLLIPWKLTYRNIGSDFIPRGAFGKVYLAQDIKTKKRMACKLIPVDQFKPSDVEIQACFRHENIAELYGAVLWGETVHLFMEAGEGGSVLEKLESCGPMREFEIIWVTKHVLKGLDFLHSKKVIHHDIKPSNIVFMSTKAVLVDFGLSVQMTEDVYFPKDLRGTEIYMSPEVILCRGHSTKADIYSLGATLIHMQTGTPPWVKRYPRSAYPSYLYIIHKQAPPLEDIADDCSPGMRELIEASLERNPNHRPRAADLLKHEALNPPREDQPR

biological target: Human Cot (Homo sapiens (Human), UniProt P41279); experiment: High Throughput Cot Biochemical Assay; settings: IC50 HTRF, Cot HTRF (TR-FRET KinEASE) biochemical assay, 400 μM ATP

IC50 | Structure (SMILES)
0.013 µM | CC(C)(C)CNc1c(C#N)cnc2c(Cl)cc(N[C@H](c3cn(C4(C(F)(F)F)CC4)nn3)c3cccc4c(Cl)nccc34)cc12 [Example 916, (S)-8-chloro-6-(((1-chloroisoquinolin-5-yl)(1-(1-(trifluoromethyl)cyclopropyl)-1H-1,2,3-triazol-4-yl)methyl)amino)-4-(neopentylamino)quinoline-3-carbonitrile]
0.015 µM | COc1ccc([C@H](Nc2cc(C#N)c3ncc(C#N)c(NCC(C)(C)C)c3c2)c2cn(C3(C(F)(F)F)CC3)nn2)cn1 [Example 905, (S)-6-(((6-methoxypyridin-3-yl)(1-(1-(trifluoromethyl)cyclopropyl)-1H-1,2,3-triazol-4-yl)methyl)amino)-4-(neopentylamino)quinoline-3,8-dicarbonitrile]
0.013 µM | Cn1cccc([C@H](Nc2cc(C#N)c3ncc(C#N)c(NCC(C)(C)C)c3c2)c2cn(C3(C(F)(F)F)CC3)nn2)c1=O [Example 844, (S)-6-(((1-methyl-2-oxo-1,2-dihydropyridin-3-yl)(1-(1-(trifluoromethyl)cyclopropyl)-1H-1,2,3-triazol-4-yl)methyl)amino)-4-(neopentylamino)quinoline-3,8-dicarbonitrile]

same assay, conditions: IC50 HTRF, Cot HTRF (TR-FRET) biochemical assay

Structure (SMILES) | IC50
CC(C)(C)N1CCC(n2cc([C@@H](Nc3cc(Cl)c4ncc(C#N)c(Nc5ccc(F)c(Cl)c5)c4c3)c3cccc4c3CCN4)nn2)CC1 [Example 60, (S)-6-(((1-(1-(tert-butyl)piperidin-4-yl)-1H-1,2,3-triazol-4-yl)(indolin-4-yl)methyl)amino)-8-chloro-4-((3-chloro-4-fluorophenyl)amino)quinoline-3-carbonitrile] | 0.012 µM
N#Cc1cnc2c(Cl)cc(N[C@@H](c3cccnc3)c3cn(CC(F)(F)F)nn3)cc2c1Nc1cnc(F)c(F)c1 [Example 209, (S)-8-chloro-4-((5,6-difluoropyridin-3-yl)amino)-6-((pyridin-3-yl(1-(2,2,2-trifluoroethyl)-1H-1,2,3-triazol-4-yl)methyl)amino)quinoline-3-carbonitrile] | 0.023 µM
Cc1ccc([C@H](Nc2cc(Cl)c3ncc(C#N)c(Nc4ccc(F)c(Cl)c4)c3c2)c2cn(C3CCN(C(C)(C)C)CC3)nn2)cn1 [Example 281, (S)-6-(((1-(1-(tert-butyl)piperidin-4-yl)-1H-1,2,3-triazol-4-yl)(6-methylpyridin-3-yl)methyl)amino)-8-chloro-4-((3-chloro-4-fluorophenyl)-amino)quinoline-3-carbonitrile] | 0.013 µM
CC(C)(C)N1CCC(n2cc([C@@H](Nc3cc(Cl)c4ncc(C#N)c(Nc5ccc(F)c(Cl)c5)c4c3)c3cocn3)nn2)CC1 [Example 348, (S)-6-(((1-(1-(tert-butyl)piperidin-4-yl)-1H-1,2,3-triazol-4-yl)(oxazol-4-yl)methyl)amino)-8-chloro-4-((3-chloro-4-fluorophenyl)amino)-quinoline-3-carbonitrile] | 0.013 µM
N#Cc1cnc2c(Cl)cc(N[C@@H](c3cccnc3)c3cn(C4COC4)nn3)cc2c1N[C@@H](CCO)c1ccccc1 [Example 182, 8-chloro-4-(((S)-3-hydroxy-1-phenylpropyl)amino)-6-(((S)-(1-(oxetan-3-yl)-1H-1,2,3-triazol-4-yl)(pyridin-3-yl)methyl)amino)quinoline-3-carbonitrile] | 0.013 µM
Cc1nc(C)c([C@H](Nc2cc(Cl)c3ncc(C#N)c(Nc4ccc(F)c(Cl)c4)c3c2)c2cn(C3CCN(C(C)(C)C)CC3)nn2)s1 [Example 261, (R)-6-(((1-(1-(tert-butyl)piperidin-4-yl)-1H-1,2,3-triazol-4-yl)(2,4-dimethyl-thiazol-5-yl)methyl)amino)-8-chloro-4-((3-chloro-4-fluorophenyl)amino)-quinoline-3-carbonitrile] | 0.014 µM
N#Cc1cnc2c(Cl)cc(N[C@@H](c3cccnc3)c3cn(C4CCN(C5COC5)CC4)nn3)cc2c1Nc1ccc(F)c(Cl)c1 [Example 314, (S)-8-chloro-4-((3-chloro-4-fluorophenyl)amino)-6-(((1-(1-(oxetan-3-yl)piperidin-4-yl)-1H-1,2,3-triazol-4-yl)(pyridin-3-yl)methyl)amino)quinoline-3-carbonitrile] | 0.015 µM
Cc1ncccc1[C@H](Nc1cc(Cl)c2ncc(C#N)c(Nc3ccc(F)c(Cl)c3)c2c1)c1cn(COC(=O)C(C)(C)C)nn1 [Example 274, (S)-(4-(((8-chloro-4-((3-chloro-4-fluorophenyl)amino)-3-cyanoquinolin-6-yl)amino)(2-methylpyridin-3-yl)methyl)-1H-1,2,3-triazol-1-yl)methyl pivalate] | 0.012 µM
CC(C)n1cc([C@@H](Nc2cc(Cl)c3ncc(C#N)c(Nc4ccc(F)c(Cl)c4)c3c2)c2csc(N3CCOCC3)n2)nn1 [Example 301, (S)-8-chloro-4-((3-chloro-4-fluoro-phenyl)amino)-6-(((1-isopropyl-1H-1,2,3-triazol-4-yl)(2-morpholinothiazol-4-yl)methyl)amino)quinoline-3-carbonitrile] | 0.014 µM
COc1ccc([C@H](Nc2cc(Cl)c3ncc(C#N)c(Nc4ccc(F)c(Cl)c4)c3c2)c2cn(C3CCN(C(C)(C)C)CC3)nn2)cn1 [Example 290, (S)-6-(((1-(1-(tert-butyl)piperidin-4-yl)-1H-1,2,3-triazol-4-yl)(6-methoxy-pyridin-3-yl)methyl)amino)-8-chloro-4-((3-chloro-4-fluorophenyl)amino)-quinoline-3-carbonitrile] | 0.012 µM
Cc1ocnc1[C@H](Nc1cc(Cl)c2ncc(C#N)c(Nc3ccc(F)c(Cl)c3)c2c1)c1cn(C2CCN(C(C)(C)C)CC2)nn1 [Example 263, (S)-6-(((1-(1-(tert-butyl)piperidin-4-yl)-1H-1,2,3-triazol-4-yl)(5-methyloxazol-4-yl)methyl)amino)-8-chloro-4-((3-chloro-4-fluorophenyl)amino)quinoline-3-carbonitrile] | 0.013 µM

Second part, the molecule after the results:

IC50 | Structure (SMILES)
0.037 µM | Cc1ncoc1[C@H](Nc1cc(C#N)c2ncc(C#N)c(NCC(C)(C)C)c2c1)c1cn(C2(C(F)F)CC2)nn1 [Example 657, (R)-6-(((1-(1-(difluoromethyl)-cyclopropyl)-1H-1,2,3-triazol-4-yl)(4-methyloxazol-5-yl)methyl)amino)-4-(neopentylamino)quinoline-3,8-dicarbonitrile]
0.013 µM | [2H]C([2H])(Nc1c(C#N)cnc2c(Cl)cc(N[C@@]([2H])(c3ccc(N(C)C)nc3)c3cn(C4CC4)nn3)cc12)C(C)(C)C [Example 679, (S)-8-chloro-6-(((1-cyclopropyl-1H-1,2,3-triazol-4-yl)(6-(dimethylamino)pyridin-3-yl)methyl-d)amino)-4-((2,2-dimethylpropyl-1,1-d2)amino)quinoline-3-carbonitrile]
0.015 µM | Cc1nc(Cl)ccc1[C@H](Nc1cc(Cl)c2ncc(C#N)c(NCC(C)(C)C)c2c1)c1cn(C2(C(F)(F)F)CC2)nn1 [Example 794, (S)-8-chloro-6-(((6-chloro-2-methylpyridin-3-yl)(1-(1-(trifluoromethyl)-cyclopropyl)-1H-1,2,3-triazol-4-yl)methyl)amino)-4-(neopentylamino)quinoline-3-carbonitrile]
0.014 µM | N#Cc1cnc2c(Cl)cc(N[C@H](c3cn(C4CCNCC4)nn3)c3cc(Cl)cs3)cc2c1Nc1ccc(F)c(Cl)c1 [Example 385, (R)-8-chloro-4-((3-chloro-4-fluoro-phenyl)amino)-6-(((4-chlorothiophen-2-yl)(1-(piperidin-4-yl)-1H-1,2,3-triazol-4-yl)methyl)amino)quinoline-3-carbonitrile]
0.015 µM | CC(C)(C)CNc1c(C#N)cnc2c(Cl)cc(N[C@H](c3cn(C(C)(C)C(F)F)nn3)c3cccc4ncccc34)cc12 [Example 693, (S)-8-chloro-6-(((1-(1,1-difluoro-2-methylpropan-2-yl)-1H-1,2,3-triazol-4-yl)(quinolin-5-yl)methyl)amino)-4-(neopentylamino)quinoline-3-carbonitrile]
0.014 µM | CCN1CCC(n2cc([C@@H](Nc3cc(Cl)c4ncc(C#N)c(Nc5ccc(F)c(Cl)c5)c4c3)c3ccc(Cl)s3)nn2)CC1 [Example 382, (R)-8-chloro-4-((3-chloro-4-fluoro-phenyl)amino)-6-(((5-chlorothiophen-2-yl)(1-(1-ethylpiperidin-4-yl)-1H-1,2,3-triazol-4-yl)methyl)amino)quinoline-3-carbonitrile]

same assay, conditions: read-out: IC50 HTRF; Cot HTRF (TR-FRET KinEASE) biochemical assay, 400 μM ATP

IC50 | Structure (SMILES)
0.014 µM | COc1nccc2c([C@H](Nc3cc(Cl)c4ncc(C#N)c(NCC(C)(C)C)c4c3)c3cn([C@@H](C)CF)nn3)cccc12 [Example 932, 8-chloro-6-(((S)-(1-((S)-1-fluoropropan-2-yl)-1H-1,2,3-triazol-4-yl)(1-methoxylsoquinolin-5-yl)methyl)amino)-4-(neopentylamino)quinoline-3-carbonitrile]

same assay, conditions: read-out: IC50 HTRF; Cot HTRF (TR-FRET) biochemical assay

IC50 | Structure (SMILES)
0.012 µM | CC(C)(C)N1CCC(n2cc([C@@H](Nc3cc(Cl)c4ncc(C#N)c(Nc5cnc(F)c(F)c5)c4c3)c3cccnc3)nn2)CC1 [Example 208]
0.035 µM | CC(C)Oc1ncccc1[C@H](Nc1cc(Cl)c2ncc(C#N)c(Nc3ccc(F)c(Cl)c3)c2c1)c1cn(C2CCN(C(C)(C)C)CC2)nn1 [Example 291, (S)-6-(((1-(1-(tert-butyl)piperidin-4-yl)-1H-1,2,3-triazol-4-yl)(2-isopro-poxypyridin-3-yl)methyl)amino)-8-chloro-4-((3-chloro-4-fluorophenyl)-amino)quinoline-3-carbonitrile]
0.014 µM | N#Cc1cnc2c(Cl)cc(N[C@H](c3cn(CCO)nn3)c3ccc(Cl)nc3Cl)cc2c1Nc1ccc(F)c(Cl)c1 [Example 329, (S)-8-chloro-4-4-((3-chloro-4-fluorophenyl)amino)-6-(((2,6-dichloropyridin-3-yl)(1-(2-hydroxyethyl)-1H-1,2,3-triazol-4-yl)methyl)amino)-quinoline-3-carbonitrile]
0.037 µM | Cc1cc(Cl)ncc1[C@H](Nc1cc(Cl)c2ncc(C#N)c(Nc3ccc(F)c(Cl)c3)c2c1)c1cn(C2CCN(C(C)(C)C)CC2)nn1 [Example 289]
